According to patent publication US20240398831A1, “COMPOSITIONS COMPRISING SMALL MOLECULE REGULATORS OF TUMOR IMMUNITY AND METHODS OF USING SAME” (Duke University, priority 2021, published 2024):

Columns and labels:
[1] = test system: iBP tumors; assay: iBP autochthonous melanoma mouse model (tumor growth, flow cytometry); assay type: in vivo; settings: E2 vs placebo
Description: Mice. C57BL/BJ, LysMCre (B6.129P2-Lyz2^tm1(cre)lfo/J) Pmel (B6.Cg-Thy1^a/Cy Tg(TcraTcrb)8Rest/J) mice were from Jackson Laboratories (Bar Harbor, ME). Age matched mice were used for all the studies. LysMCre mice were bred to Esr1^f/f mice to generate Esr1^f/f; LysMCre and littermate control LysMCre and Esr1^f/f mice. iBP (Braf^V600E/WT, Pten^f/fmTyrCreERT2) mice were generated by crossing breeders Braf^WT/WT/Pten^f/f, mTyrCreERT2 mice to BRAF^V600E, Pten^f/f mice. The mice were housed in secure animal facility cages in 12 hour light:dark cycles at temperature around 25° C. and 70% humidity. Mice had access to ad-libitum food and water. NSG (NOD.Cg-Prkd^scid Il2rg^tm1Wjl/SzJ) mice were from the Division of Laboratory Animal Resources (Duke University). The NSG animals were fed with a GL3 diet and were kept in pathogen free conditions.
Tumor models and cells. […] Tumors were measured thrice weekly using an electronic caliper. Tumor volumes were calculated by the formula V=L×(W×W)/2. For iBP mouse tumors, volumes were calculated by the formula V=L×B×H. For tumor growth rate studies mice were euthanized when the tumors reached a maximum size of 2000 mm^3.
Ovarlectomy and subcutaneous pellet Insertion. […] The mouse was then removed from anesthesia and kept in a clean cage and monitored until conscious. The mice were monitored for recovery for 10 days. […]

[2] = test system: CD4+ and CD8+ T cells; assay: T cell proliferation assay and staining, direct treatment of T cells in vitro; assay type: cell-based, mouse; settings: E2 (1 nM), 3 days
Protocol: T cells were isolated from naive WT C57BLJ6J mice and sub-optimally activated with CD3/D28 and IL2 for 3 days in the presence or absence of E2 (1 nM) and E2 (1 nM)+fulvestrant (100 nM). FIG. 17C and FIG. 17H show the percentage of CD44^+CD69^+ activated CD8^+ T cells (FIG. 17C) and CD4^+ T cells (FIG. 17H) from experiments described above. FIG. 17D and FIG. 17I show the percentage of GZMB^+ activated CD8^+ T cells (FIG. 17D) and CD4^+ T cells (FIG. 17I) from experiments described above. FIG. 17E and FIG. 17J show the percentage of IFNγ^+ activated CD8^+ T cells (FIG. 17E) and CD4^+ T cells (FIG. 17J) from experiments described above. Data are expressed as individual data points and represented as mean±S.E.M. Significance was calculated by one way ANOVA.
(§1) T cell proliferation assay and staining. CD3+ T cells were isolated from the spleens of C57BL/6J or P-mel mice with magnetic bead-based T cell isolation kit (Cat #19851, StemCell Technologies). […] Stained T cells were then counted and plated in 96-well plates coated with anti-CD3 antibody (0.5 μg/mL, Cat #19851, ThermoFisher Scientific) anti-CD28 antibody (1 μg/mL, Cat #16-0281-86, Thermo Fisher Scientific) at desired density (250,000 T cells/50,000 CD11b or BMDM) in the presence of IL2 (50 ng/mL) (Cat #212-12, PeproTech). […]

[3] = test system: T cells co-cultured with BMDM; assay: T cells co-cultured with bone marrow-derived macrophages (BMDM) polarized to M2; assay type: cell-based, mouse; settings: E2 treated ERα^f/f macrophages, TCM
Protocol: In vitro bone marrow-derived macrophage differentiation. For this purpose, bone marrow cells were aseptically collected from 8-10 weeks old female C57BL/6J mice by crushing the femurs and tibias in PBS, […] and 2 mM EDTA. Cells were added to ACK buffer to lyse the red blood cells for 2 mins with intermediate vortexing. The solution was filtered through a 40 μm strainer to remove bone fragments. To differentiate bone marrow cells to macrophages the cells were plated in DMEM media (100%) or DMEM media (70%) and 30% tumor-conditioned media, supplemented with 10% heat-inactivated charcoal-stripped serum in the presence of 30 ng/mL MCSF (Cat #312-02, PeproTech). After 3 days cells were supplemented with 50% of respective fresh media. On day 6 the media was removed and replaced with fresh media. When the cells are fully differentiated to macrophages on day 7, they are treated overnight with either DMSO, E2 (1 nM) or E2+fulvestrant (100 nM). […]
as §1, with “staining.” for “staining. CD3+ T cells were isolated from the spleens of C57BL/6J or P-mel mice with magnetic bead-based T cell isolation kit (Cat #19851, StemCell Technologies).”

In the case of 17β-estradiol [E2], the “number of intra-tumoral CD8+ cytotoxic T cells” value [1] is reported as “decreased”, the “proliferation or cytotoxic capabilities of CD4+ or CD8+ T cells” value [2] is reported as “did not affect” and the “expression of cytotoxic T cell markers (GZMB, IFNγ)” value [3] is reported as “did not show similar decrease”.
